The values below come from publication PMC8392292 (Biomedicines, 2021).

By inhibition is commonly meant the change of the read-out against control, counted positive when it falls.

The test deals with SARS-CoV-2 RdRp (Severe acute respiratory syndrome coronavirus 2, UniProt P0DTD1). Briefly: cell-based. Particulars: HEK-293T, read-out: Inhibition % of RdRp Activity at Max. Dose.

In the case of `CO[C@H]1/C=C/O[C@@]2(C)Oc3c(C)c(O)c4c(O)c(c(/C=N/N5CCN(C)CC5)c(O)c4c3C2=O)NC(=O)/C(C)=C\C=C\[C@H](C)[C@H](O)[C@@H](C)[C@@H](O)[C@@H](C)[C@H](OC(C)=O)[C@@H]1C` [Rifampin, rifampin], the inhibition at 100 µM stood at 96.7%.
